Drawing on publication PMC12319226 (Frontiers in Bioinformatics, 2025), this text covers Kd, koff and kon for three molecules.

Holding throughout (assay): BLI
Conditions in all cases: both partners purified

Assay [1] deals with T1, Neisseria meningitidis factor H binding protein variant 1.1 (Neisseria meningitidis, UniProt Q9JXV4).
T1 construct: also called fHbp v1.1; fHbp variant 1.1

The target in assay [2] is T2, factor H binding protein variant 1.1 (Neisseria meningitidis serogroup B …, UniProt Q9JXV4).
T2 construct: also called fHbp v1.1; v1.1 Control (0001)

Assay [3] has as its target T2, factor H binding protein variant 1.1. The source holds these as a separate data set.

B1: chimeric antibody hJAR5 (antibody, V domains shown)
VH: QVQMQQPGAELVKPGASVKLSCKASGYTFISYWMHWVKQRPGRGLEWIGRIAPDTGIIYYNEKFKNKATLTVDTPSSTAYMQLNSLTSEDSAVYYCARYLKYDGSTYRFDYWGQGTTLTVSS
VL: DIVMTQAAPSVPVTPGESVSISCRSSKSLLHSNGNTYLFWFLQRPGQSPQLLIYRMSNLASGVPDRFSGSGSGTSFTLRISRVEAEDVGVYYCMQHLEYPYTFGGGTKLEIK
As for B1, in assay [1], the dissociation constant (Kd) is 0.2 to 0.7 nM.

B2: mAb JAR5 (mouse) (antibody, V domains shown)
VH: B1 VH
VL: B1 VL
notes: source: Expi293, purified (MabSelect SuRe, SEC); copies: 2 + 2
For the molecule B2, in assay [2], binding was characterised by a dissociation constant (Kd) of 0.237 nM, the koff was determined as 0.000299 s⁻¹ and the kon stood at 1.26e+06 ± 9090 M⁻¹ s⁻¹.

B3: chimeric antibody hJAR5 (antibody, V domains shown)
VH: B1 VH
VL: B1 VL
notes: also called hJAR5-2; humanized JAR5; source: Expi293, purified (MabSelect SuRe, SEC); copies: 2 + 2
In assay [3], B3 came in with a Kd of 0.798 nM, a koff of 0.000617 s⁻¹ and an on-rate constant (kon) of 773000 ± 2600 M⁻¹ s⁻¹.

By Kd is commonly meant the constant that tells how readily two partners part at equilibrium. Broadly, the koff is the first-order rate constant of dissociation. High values mean a short-lived complex, low ones a long-lived complex. As a reminder, the kon is a measure of how fast the partners come together.
